According to patent US11268120B2, “Identification of transglutaminase substrates and uses therefor” (Roche Sequencing Solutions, Inc., priority 2014, dated 2022):

Target: T1, MTG (Streptomyces mobaraensis, UniProt P81453)
T1 construct: purchased Zedira GmbH
T1 sequence (P81453 77-407): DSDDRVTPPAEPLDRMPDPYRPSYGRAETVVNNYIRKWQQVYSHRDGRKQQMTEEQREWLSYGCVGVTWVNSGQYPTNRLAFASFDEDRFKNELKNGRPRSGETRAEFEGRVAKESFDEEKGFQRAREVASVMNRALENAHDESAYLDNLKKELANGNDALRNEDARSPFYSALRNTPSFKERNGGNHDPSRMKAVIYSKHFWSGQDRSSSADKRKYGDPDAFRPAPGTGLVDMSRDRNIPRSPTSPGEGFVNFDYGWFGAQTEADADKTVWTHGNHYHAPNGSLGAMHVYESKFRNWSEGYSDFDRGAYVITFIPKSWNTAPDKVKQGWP
Test: GLDH-coupled continuous assay for MTG activity in solution, Gln-containing substrate peptides
Assay type: biochemical
Details: pH 7.2, 37° C.
Method: FIG. 3 is a plot of MTG activity obtained by measuring rates of NADH oxidation at 340 nm and 37° C. using various concentrations of the di-peptide QG (1-20 mM) and the peptide GGGDYALQGGGG (SEQ ID NO: 86) (0.2-5 mM) in the GLDH-coupled assay. The Michaelis-Menten equation was used to fit hyperbolic curves to the data points, giving Km and Vmax parameters and allowing calculation of turnover number (kcat) and catalytic efficiency (kcat/KM). Improved performance of array selected GGGDYALQGGGG (SEQ ID NO: 86) (open squares) substrate was observed compared to standard QG-substrate (filled squares). ‘Z’ represents a carboxybenzyl protective group. […] The Michaelis-Menten equation was used to fit hyperbolic curves to the data points, giving Km and Vmax parameters as well as allowing calculation of turnover number (kcat) and catalytic efficiency (kcat/KM). […]
It was next determined whether peptides selected in the array assay were also preferred substrates in the solution reaction. […]
The assay was performed in a 96-well microtiter plate in the presence of 10 mM α-ketoglutarate, 10 mM glycine methyl ester as acyl acceptor, 2 U of glutamate dehydrogenase (GLDH), 500 μM NADH (i.e., reduced nicotinamide adenine dinucleotide) and Gln-containing substrate peptide concentrations ranging between 0.2 and 20 mM in 200 mM MOPS (i.e., 3-(N-morpholino)propanesulfonic acid), 1 mM EDTA pH 7.2 (total volume per well 200 μl). The reaction was started by the addition of 0.1 U of MTG (Zedira GmbH) and the oxidation of NADH was continuously recorded against a blank at 340 nm for 20 min using a Biotek Synergy H4 microplate reader thermostated at 37° C. with short shaking intervals before each measurement. After a short lag phase, where the GLDH was saturated by MTG-mediated release of ammonia, linear rates of absorbance versus time, corresponding to MTG turnover, were observed, and subjected to Michaelis-Menten kinetic analysis.

Substance: Z-QG [reference compound]
- Km (Gln-peptide 0.2-20 mM, 10 mM glycine methyl ester as acyl acceptor): 2610 ± 400 µM
- Vmax (Gln-peptide, 0.1 U MTG): 0.39 ± 0.02 nmol/s
- kcat (Gln-peptide): 5.1 s⁻¹
